Target: Transient receptor potential cation channel subfamily A member 1 (Homo sapiens, UniProt O75762)
Experiment: Antagonist activity at human TRPA1 channel assessed as inhibition of noxious cold-induced receptor activation

The chains behind the UniProt entries cited, without tags or fusion partners.
UniProt O75762, whole entry: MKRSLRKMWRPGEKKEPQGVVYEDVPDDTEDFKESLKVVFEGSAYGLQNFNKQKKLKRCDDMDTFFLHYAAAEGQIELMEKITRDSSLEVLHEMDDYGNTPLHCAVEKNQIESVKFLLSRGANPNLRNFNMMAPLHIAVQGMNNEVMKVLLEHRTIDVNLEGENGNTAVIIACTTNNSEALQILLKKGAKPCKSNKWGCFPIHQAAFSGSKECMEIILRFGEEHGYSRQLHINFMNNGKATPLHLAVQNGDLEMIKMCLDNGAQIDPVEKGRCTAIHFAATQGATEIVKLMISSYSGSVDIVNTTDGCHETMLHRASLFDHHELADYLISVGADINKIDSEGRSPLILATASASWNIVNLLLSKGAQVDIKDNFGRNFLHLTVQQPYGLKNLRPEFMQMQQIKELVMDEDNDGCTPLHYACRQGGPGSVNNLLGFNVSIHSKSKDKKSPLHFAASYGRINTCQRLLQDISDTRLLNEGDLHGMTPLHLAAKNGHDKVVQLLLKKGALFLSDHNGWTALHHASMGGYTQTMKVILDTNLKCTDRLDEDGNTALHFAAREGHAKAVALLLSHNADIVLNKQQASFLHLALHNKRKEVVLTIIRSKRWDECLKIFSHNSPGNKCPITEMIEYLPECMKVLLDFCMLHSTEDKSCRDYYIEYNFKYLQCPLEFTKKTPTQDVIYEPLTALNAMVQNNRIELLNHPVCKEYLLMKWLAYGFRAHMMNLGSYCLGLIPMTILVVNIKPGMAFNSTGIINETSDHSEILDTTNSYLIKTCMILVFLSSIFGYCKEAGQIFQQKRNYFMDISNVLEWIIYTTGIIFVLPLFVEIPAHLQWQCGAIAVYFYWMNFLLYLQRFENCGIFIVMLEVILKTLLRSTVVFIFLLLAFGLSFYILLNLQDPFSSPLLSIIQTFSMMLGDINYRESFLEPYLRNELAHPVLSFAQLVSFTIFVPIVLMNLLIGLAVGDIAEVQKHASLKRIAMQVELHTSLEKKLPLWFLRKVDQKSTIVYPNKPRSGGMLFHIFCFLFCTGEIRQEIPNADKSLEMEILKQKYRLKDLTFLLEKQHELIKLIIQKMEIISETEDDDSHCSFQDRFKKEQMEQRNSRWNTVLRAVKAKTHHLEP

O=C(NC(Sc1ccc(Cl)cc1)C(Cl)(Cl)Cl)c1ccccc1 (stereo unspecified)
IC50: 7 nM

Reference: ChEMBL document CHEMBL1155439, “Transient receptor potential ankyrin 1 (TRPA1) channel as emerging target for novel analgesics and anti-inflammatory agents” (J Med Chem, 2010)
